The values that follow come from patent US9873702B2, “Heterocyclic compounds as biogenic amine transport modulators” (Southern Research Institute, priority 2014, dated 2018).

The chains behind the UniProt entries cited, without tags or fusion partners.
UniProt P31652, whole entry: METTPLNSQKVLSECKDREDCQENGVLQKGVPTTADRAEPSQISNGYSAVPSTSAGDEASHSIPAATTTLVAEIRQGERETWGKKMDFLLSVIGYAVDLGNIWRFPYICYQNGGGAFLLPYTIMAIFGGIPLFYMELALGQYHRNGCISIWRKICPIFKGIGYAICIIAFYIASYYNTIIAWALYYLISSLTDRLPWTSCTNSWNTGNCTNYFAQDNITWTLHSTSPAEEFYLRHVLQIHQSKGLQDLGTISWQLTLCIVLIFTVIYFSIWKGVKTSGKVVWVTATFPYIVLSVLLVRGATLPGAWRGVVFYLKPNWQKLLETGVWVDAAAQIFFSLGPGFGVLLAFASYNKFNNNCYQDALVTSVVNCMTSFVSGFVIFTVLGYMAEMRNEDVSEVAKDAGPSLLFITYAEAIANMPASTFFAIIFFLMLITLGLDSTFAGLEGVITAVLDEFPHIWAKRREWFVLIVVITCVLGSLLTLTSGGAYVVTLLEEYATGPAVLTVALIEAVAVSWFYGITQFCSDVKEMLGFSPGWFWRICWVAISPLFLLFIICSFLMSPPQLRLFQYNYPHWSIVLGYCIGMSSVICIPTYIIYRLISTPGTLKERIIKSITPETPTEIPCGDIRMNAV

Experiment [1] concerns the target T1, serotonin transporter (SERT) (Rattus norvegicus, UniProt P31652).
T1 construct: Freshly removed whole brain minus cerebellum and caudate was homogenized; from tissue; host or cells: rat whole brain minus cerebellum and caudate, synaptosomes
Kind of experiment: Serotonin reuptake ([^3H]serotonin uptake) inhibition in rat brain synaptosomes. The class given is biochemical.

For experiment [2], the target named is norepinephrine transporter (NET) (Rattus norvegicus, UniProt Q9WTR4). Briefly: Norepinephrine reuptake ([^3H]norepinephrine uptake) inhibition in rat brain synaptosomes. The note with it: read-out: NET Uptake IC50; mean ± S.D., n = 3.

For the molecule `COC(=O)[C@H]1[C@@H](OC(=O)c2ccccc2)C[C@@H]2CC[C@H]1N2C` [cocaine, reference compound], the IC50 in experiment [1] was determined as 273 ± 24 nM; in experiment [2], 329 ± 22 nM.
